For 1 substance, Kd, koff and kon results are on record in paper PMC4165442.

Common to all, as to test: SPR
Assay [1] has as its target TGF-β3:TβRII complex (biotinylated TGF-β3 surface with 4 μM TβRII in the buffer).
Assay [2] has as its target TGF-β131:TβRII complex (biotinylated TGF-β131 surface with 4 μM TβRII in the buffer).
Assay [3] concerns the target TGF-β1:TβRII complex (biotinylated TGF-β1 surface with 4 μM TβRII in the buffer).

Take “TβRI-ED: residues 7–91 of the extracellular domain of the TGF-β type I receptor (domain or fragment)”: in assay [1], the Kd turned out to be 34 nM, the koff was 0.0012 s⁻¹ and the kon was 35000 M⁻¹ s⁻¹. In assay [2], this substance displayed a Kd of 51 nM, a koff of 0.0026 s⁻¹ and a kon of 52000 M⁻¹ s⁻¹. In assay [3], this substance showed a Kd of 240 nM and a kon of 33000 M⁻¹ s⁻¹.
